Experimental data taken from ChEMBL document CHEMBL1128455, “Ribose-modified adenosine analogues as potential partial agonists for the adenosine receptor” (J Med Chem, 1995).

The chains behind the UniProt entries cited, without tags or fusion partners.
UniProt P30543, whole entry: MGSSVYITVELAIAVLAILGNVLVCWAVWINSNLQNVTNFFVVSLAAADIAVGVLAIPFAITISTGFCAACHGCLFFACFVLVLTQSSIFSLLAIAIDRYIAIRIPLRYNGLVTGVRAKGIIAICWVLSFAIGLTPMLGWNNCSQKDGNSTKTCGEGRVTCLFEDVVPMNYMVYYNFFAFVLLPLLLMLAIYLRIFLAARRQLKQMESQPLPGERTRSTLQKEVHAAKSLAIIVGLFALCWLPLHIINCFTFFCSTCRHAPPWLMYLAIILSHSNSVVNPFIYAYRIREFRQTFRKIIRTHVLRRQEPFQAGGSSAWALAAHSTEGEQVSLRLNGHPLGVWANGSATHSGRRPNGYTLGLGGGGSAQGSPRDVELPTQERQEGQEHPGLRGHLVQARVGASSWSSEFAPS

Molecular target: Adenosine receptor A2a (Rattus norvegicus, UniProt P30543)
Assay: Binding affinity against Adenosine A2A receptor by using [3H]CGS-21680 as radioligand

`C[C@H](Cc1ccccc1)Nc1ncnc2c1ncn2[C@@H]1O[C@H](CO)[C@@H](O)[C@H]1O` [(R)-PIA] gave a Ki of 140 nM.
